Chains of the proteins cited; added tags and fusions are not shown.
UniProt Q00987, whole entry: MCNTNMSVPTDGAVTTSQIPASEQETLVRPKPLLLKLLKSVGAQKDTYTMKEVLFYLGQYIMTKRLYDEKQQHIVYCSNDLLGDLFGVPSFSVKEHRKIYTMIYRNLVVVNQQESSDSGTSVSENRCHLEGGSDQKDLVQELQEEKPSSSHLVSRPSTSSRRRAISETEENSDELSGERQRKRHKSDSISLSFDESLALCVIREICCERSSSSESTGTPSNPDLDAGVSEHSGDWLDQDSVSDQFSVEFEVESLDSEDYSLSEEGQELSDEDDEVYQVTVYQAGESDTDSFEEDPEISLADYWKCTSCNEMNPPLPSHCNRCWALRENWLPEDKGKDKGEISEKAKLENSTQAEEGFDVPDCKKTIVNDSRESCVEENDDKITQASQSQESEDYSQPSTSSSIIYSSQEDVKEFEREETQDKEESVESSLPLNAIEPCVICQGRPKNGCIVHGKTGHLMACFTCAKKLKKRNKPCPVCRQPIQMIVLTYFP

According to PMC6002838 (The Journal of antibiotics, 2017):

Target: MDM2-p53 complex (Homo sapiens, UniProt Q00987)
Assay: MDM2-p53 complex inhibition assay
Assay type: binding
Details: 100 μM

Disruption of MDM2-p53 complex (post-treat) (compounds added after formation of the complex): around 28%
Inhibition of MDM2-p53 complex formation (pre-treat) (compounds added before formation of the complex): 62%
Compound: COc1ccc(C2=N[C@@H](c3ccc(Cl)cc3)[C@@H](c3ccc(Cl)cc3)N2C(=O)N2CCNC(=O)C2)c(OC(C)C)c1 [nutlin-3a, Nutlin-3a]
